AlphaSeq binding of Ab-14 heavy chain variants to a spike HR2 peptide

Source: Li et al. 2023 (doi:10.1038/s41467-023-39022-2), MIT Lincoln Laboratory and A-Alpha Bio; data file from the FLAb repository.

Antigen: PDVDLGDISGINAS, a 14-residue peptide of the SARS-CoV-2 spike HR2 region.

Parent: Ab-14, a human scFv built as VH, a (GGGGS)3 linker, VL. Only the CDRs of the heavy chain vary.
VH: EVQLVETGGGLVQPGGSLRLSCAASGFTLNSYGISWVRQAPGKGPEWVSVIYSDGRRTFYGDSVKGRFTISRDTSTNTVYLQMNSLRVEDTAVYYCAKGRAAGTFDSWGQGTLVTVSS
VL: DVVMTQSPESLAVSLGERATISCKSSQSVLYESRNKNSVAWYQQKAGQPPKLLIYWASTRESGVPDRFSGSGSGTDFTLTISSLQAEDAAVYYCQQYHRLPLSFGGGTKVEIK

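The parent was found by panning a naive human phage display library on the peptide. These sequences belong to a second round, designed from the earlier measurements on random variants of the parent. Their group label is 14H_En_Gibbs (En: ensemble of fine-tuned language models; Gibbs: Gibbs sampling). The scFvs were displayed on barcoded MATa yeast, the peptide on MATalpha yeast. Binding brings cells together so that they mate, and sequencing counts the barcode pairs among the diploids. A regression on co-assayed BCL2-family reference pairs converts the normalised counts of each replicate to an apparent Kd. Each pool was mated in six replicate cultures.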

Variants are written as CDR1, CDR2 and CDR3 of the heavy chain (limits as in the source). Parent: GFTLNSYGIS, VIYSDGRRTFYGDSVK, GRAAGTFDS.
Values are log10 of the apparent Kd in nM; lower means stronger binding.
Replicates are averaged; those with no signal do not enter the mean.
A pair that was not seen in that replicate is written "ND"; this usually means weak binding, but a binder can also be missed.
The parent sequence was in this pool as ten entries: three were never detected, three once, and four in most replicates, with averages from 0.34 to 2.37.

| CDR-H1 | CDR-H2 | CDR-H3 | replicates, log10 nM | log10 Kd (nM), mean | control signals |
|---|---|---|---|---|---|
| GEDLQEYGIS | VIYADGLRTKYADKVK | GNINGYFDD | ND / ND / ND / ND / ND / ND | ND | 0 of 18 |
| GDILEEYGIS | VIYADGMRTYYEDSVK | GNVNGTFFI | 2.57 / ND / 2.10 / ND / 2.69 / ND | 2.45 | 0 of 18 |
| GFSLDEYGIS | VIYADGVRTQYHPKVK | GLQGFIFDL | ND / ND / ND / ND / ND / ND | ND | 0 of 18 |
| GDSLEEYGIS | VIYADGKRDVYADSVK | GHISGWFDI | ND / ND / ND / ND / ND / ND | ND | 0 of 18 |
| GFDLNEYGIS | VIYADGARSFYTDKVK | GVTVGDNGT | ND / ND / 3.13 / ND / ND / ND | 3.13 | 4 of 18 (3.86) |
| GFDIQEYGIS | VIYADGERRAYADKVK | GTHGGTRDI | ND / ND / ND / ND / ND / ND | ND | 3 of 18 (1.92) |
| GFDLGEYGIS | VIYADGRRFAYKNAVK | GLVEGMLDI | 1.17 / 1.35 / 0.59 / 0.63 / 0.87 / 0.90 | 0.92 | 1 of 18 (1.90) |
| EFDLQEYGIS | VIYADGKREAYKDKFK | GQVAGTFDE | ND / 1.78 / 0.24 / 0.65 / -0.20 / 1.86 | 0.87 | 0 of 18 |
| GFALNEYGIS | VIYADGFRKAYINSVK | GVNNMDVNV | 0.36 / 0.11 / 0.46 / 0.76 / 0.10 / 0.25 | 0.34 | 0 of 18 |
| GADLNEYGIS | VIYADGDRKAFQPDVK | GTNAGDFDI | ND / ND / ND / ND / ND / ND | ND | 0 of 18 |
| GESLEEYGIS | VIYADGIREQYVDSVK | GEQGGYFVV | ND / ND / 1.65 / ND / ND / ND | 1.65 | 0 of 18 |
| GDNLDEYGIS | VIYADGHRTAYSNPVK | GEYGVTVGQ | ND / ND / ND / ND / ND / ND | ND | 0 of 18 |
| KFDIEHYGIS | VIYADGKRSGYSNAVK | GWQAGTFNT | ND / -0.64 / 0.14 / 1.14 / 0.11 / -0.23 | 0.10 | 0 of 18 |
| GFGINEYGIS | VIYADGMRRSYADSVK | GAHSGYMVW | ND / ND / ND / ND / ND / ND | ND | 0 of 18 |
| GFNLDEYGIS | VIYADGQRTYYAEDVK | GKTGDHLFI | ND / ND / ND / ND / ND / ND | ND | 0 of 18 |
| GFKIDEYGIS | VIYADGMRRSYADSFK | GAESGYMVV | ND / ND / ND / ND / ND / ND | ND | 0 of 18 |
| GFELSEYGIS | VIYADGHRSFVTDDVK | GQNAGAFNV | ND / ND / 2.29 / ND / ND / ND | 2.29 | 1 of 18 (2.44) |
| GNSLDDYGIS | VIYADGRRTMYAEKVK | GQIAGSFFH | ND / ND / ND / ND / ND / ND | ND | 1 of 18 (1.53) |
| GFSLDEFGIS | VIYADGMRSAYSHNVK | GQHGGFTVS | ND / ND / ND / ND / ND / ND | ND | 0 of 18 |
| GKDINEYGVS | VIYADGKRNAYINKVK | GKNAGAFVD | ND / ND / ND / ND / ND / ND | ND | 0 of 18 |
| GEDLMEYGIS | VIYADGERKSYVNSVK | GGVSVTFST | ND / ND / ND / ND / ND / ND | ND | 0 of 18 |
| GNDLQEYGIS | VIYADGMRNQYTQSVK | GMNAGVFDY | ND / ND / ND / ND / ND / ND | ND | 0 of 18 |
| GFDLGEYGIS | VIYADGQRAAYQQQFK | GEAGAAFDL | ND / ND / 1.53 / ND / 2.43 / ND | 1.98 | 0 of 18 |
| GFSLDEFGIS | VIYADGMRSAYSQNVK | GQHGGFTVS | 0.11 / -0.07 / 0.10 / -0.04 / -0.18 / -0.28 | -0.06 | 0 of 18 |
| GFGLDEYGIS | VIYADGMRSNYANSVK | GHQAGVIVV | ND / ND / ND / ND / ND / ND | ND | 0 of 18 |
| GFNLDEYGIS | VIYADGQRTAYAQHVK | GGGGTDRGI | ND / ND / ND / ND / ND / ND | ND | 0 of 18 |
| GFNLDEYGIS | VIYADGYRRMYADDVK | GMNSGFGGT | ND / ND / ND / ND / ND / ND | ND | 0 of 18 |
| GESLDQYGIS | VIYADGVRTSYTNSVK | GVHAGTFMQ | ND / ND / ND / ND / ND / ND | ND | 0 of 18 |
| GFELQEYGIS | VIYADGIRTNYSQNVK | GTLAGTFTQ | ND / 1.41 / ND / 1.05 / ND / ND | 1.23 | 0 of 18 |
| GKSLNEFGIS | VIYADGVRRAYADDVK | GNAAGHFLS | ND / ND / ND / ND / ND / ND | ND | 0 of 18 |
| GFDLNEYGIS | VIYADGMRTYYTESVK | GNIFDQLFV | ND / 1.36 / ND / ND / ND / ND | 1.36 | 0 of 18 |
| GFVLDEFGIS | VIYADGRRTAYTQDVK | GEKAGDFSF | 3.04 / 1.04 / ND / 1.07 / 1.29 / 2.35 | 1.76 | 0 of 18 |
| GFDLEEYGIS | VIYADGVRTAYVDNSK | GENGGAYYT | ND / ND / ND / ND / ND / ND | ND | 0 of 18 |
| GFSIDEYGIS | VIYADGARASYADKVK | GQEVGDLIT | 1.98 / ND / ND / ND / ND / ND | 1.98 | 0 of 18 |
| GFQLDEYGIS | VIYADGKRTAYAANFK | GNGLVLYEG | ND / ND / 2.92 / ND / ND / ND | 2.92 | 0 of 18 |
| GFGLDEYGIS | VIYADGVRRFYKNSVK | GHYGDGFLH | 1.41 / 0.85 / 1.48 / 1.53 / 1.66 / 0.48 | 1.23 | 0 of 18 |
| GFNLSEYGIS | VIYADGKKTQYSNAVK | GANGGYFNV | ND / 1.16 / ND / ND / ND / ND | 1.16 | 0 of 18 |
| GFGLDEYGIS | VIYADGQRVVYTQDVK | GLYTFVKGI | ND / ND / ND / ND / ND / ND | ND | 0 of 18 |

4 of these entries, quoted again:

CDR-H1	CDR-H2	CDR-H3	replicates, log10 nM	log10 Kd (nM), mean	control signals
GFNLDEYGIS	VIYADGYRRMYADDVK	GMNSGFGGT	ND / ND / ND / ND / ND / ND	ND	0 of 18
GADLNEYGIS	VIYADGDRKAFQPDVK	GTNAGDFDI	ND / ND / ND / ND / ND / ND	ND	0 of 18
GNSLDDYGIS	VIYADGRRTMYAEKVK	GQIAGSFFH	ND / ND / ND / ND / ND / ND	ND	1 of 18 (1.53)
KFDIEHYGIS	VIYADGKRSGYSNAVK	GWQAGTFNT	ND / -0.64 / 0.14 / 1.14 / 0.11 / -0.23	0.10	0 of 18

The range of this assay differs from that of the first round, and the authors advise against merging the two.
The authors averaged sequences with at least three values out of six and counted those with two or fewer as poor binders.
Nonspecific signal, from three strains lacking the peptide, appeared in 1% of pairings of all heavy chain designs, centred on 2.08 (5% of these signals below 0.84); values are not corrected for it. The control count says in how many pairings with the empty strains this scFv gave a signal, with their mean in brackets.